# Results taken from US20230119479A1, “A HISTONE DEACETYLASE INHIBITOR HAVING A NITROGEN-CONTAINING AROMATIC HETEROCYCLYL GROUP” (SHIONOGI & CO., LTD., priority 2019, published 2023).
# The chains behind the UniProt entries cited, without tags or fusion partners.
# UniProt Q92769, whole entry: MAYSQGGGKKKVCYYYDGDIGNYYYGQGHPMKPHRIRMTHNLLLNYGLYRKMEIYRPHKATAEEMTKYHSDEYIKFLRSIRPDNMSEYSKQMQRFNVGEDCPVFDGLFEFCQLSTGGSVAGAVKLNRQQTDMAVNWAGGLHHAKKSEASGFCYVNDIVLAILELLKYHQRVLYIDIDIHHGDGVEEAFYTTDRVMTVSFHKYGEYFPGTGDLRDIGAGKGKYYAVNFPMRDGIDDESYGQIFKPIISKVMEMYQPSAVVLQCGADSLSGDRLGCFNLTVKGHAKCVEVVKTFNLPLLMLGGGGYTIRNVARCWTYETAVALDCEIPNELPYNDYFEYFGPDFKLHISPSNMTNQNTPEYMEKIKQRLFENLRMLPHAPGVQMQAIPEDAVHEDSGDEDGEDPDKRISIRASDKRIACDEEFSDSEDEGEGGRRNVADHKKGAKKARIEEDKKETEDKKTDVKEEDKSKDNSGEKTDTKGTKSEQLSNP
# Molecular target: HDAC2 Human recombinant C-terminal FLAG-tag (Homo sapiens, UniProt Q92769)
# Test: Measurement of HDAC2 enzyme inhibitory activity (HTRF)
# Conditions: read-out: HDAC2 IC50; recombinant HDAC2, H3K9ac peptide, 3 hours room temperature
# Description: Test Example 1: Measurement of HDAC2 Enzyme Inhibitory Activity
# The HDAC2 enzyme inhibitory activity was measured by the method described in the following test example.
# To each well of a 384-well plate (Corning, 4514), DMSO solution of the test compound was dispensed at 50 nL/well from a final concentration of 99 μM to 8 points (n=2) in the 3-fold dilution series using Echo555 (Beckman Coulter). 2.5 μl of 0.005 mg/mL recombinant enzyme HDAC2 (HDAC2 Human recombinant C-terminal FLAG-tag, BPS Bioscience, 50052) was added to each well, 2.5 μl of 0.6 μM H3K9ac peptide (Lys(Ac)9-Histone H3 (1-21)-GGK(Biotin), AnaSpec, 64361) was added, mixed, and reacted in a wet box at room temperature for 3 hours. […] After the reaction, 5 μL of 10 μM SAHA (suberoylanilide hydroxamic acid) as a reaction terminator and the 5 μL of a mixture of 2.5 ng of H3K9me0 antibody (ActiveMotif, 61399) labeled in-house with europium cryptate (Cisbio, 65EUSABA) and 125 nM streptavidin-XL665 (Cisbio, 610SAXLA) as an HTRF (time-resolved fluorescence) reagent were added to each well, mixed, and allowed to stand in a wet box at room temperature for reaction. […] After reacting for 2 hours or more, HTRF was measured using a multi-plate reader such as SpectraMax Paradigm (MOLECULAR DEVICE) or RUBYstar (BMG LABTECH). […]
smiles,measurement,value
N#Cc1cnc(C(=O)Nc2cc(-c3ccc(F)nc3)ccc2N)cn1,IC50,450 nM
